Laboratory results as given in ChEMBL document CHEMBL4033752, “Discovery of Potent and Selective Tricyclic Inhibitors of Bruton's Tyrosine Kinase with Improved Druglike Properties” (ACS Med Chem Lett, 2017).

Amino acid sequences for entries named in this document (tags omitted). A change or cut given only in a name is not applied to a line headed by its entry.
UniProt Q06187: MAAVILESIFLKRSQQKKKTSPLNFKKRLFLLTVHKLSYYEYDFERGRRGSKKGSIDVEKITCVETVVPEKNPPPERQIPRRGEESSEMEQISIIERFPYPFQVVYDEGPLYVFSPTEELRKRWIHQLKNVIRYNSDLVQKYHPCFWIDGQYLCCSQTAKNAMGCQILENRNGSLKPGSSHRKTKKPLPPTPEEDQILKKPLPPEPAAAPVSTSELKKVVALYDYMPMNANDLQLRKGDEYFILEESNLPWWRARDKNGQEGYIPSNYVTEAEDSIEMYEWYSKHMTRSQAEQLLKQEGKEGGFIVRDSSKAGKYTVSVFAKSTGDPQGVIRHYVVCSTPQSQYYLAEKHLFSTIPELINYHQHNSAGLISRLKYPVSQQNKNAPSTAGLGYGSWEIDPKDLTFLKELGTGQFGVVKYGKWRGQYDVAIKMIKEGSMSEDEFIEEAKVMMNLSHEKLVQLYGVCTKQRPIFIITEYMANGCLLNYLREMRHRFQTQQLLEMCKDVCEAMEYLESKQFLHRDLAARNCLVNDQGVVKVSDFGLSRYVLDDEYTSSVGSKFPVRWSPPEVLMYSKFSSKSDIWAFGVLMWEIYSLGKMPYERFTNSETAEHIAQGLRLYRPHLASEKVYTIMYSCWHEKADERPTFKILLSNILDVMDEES

Target: Tyrosine-protein kinase BTK (Homo sapiens, UniProt Q06187)

Compound	IC50 [µM]
CN1CCN(c2ccc(Nc3cc(-c4cc(F)cc(N5CCn6c(cc7c6CCCC7)C5=O)c4CO)cn(C)c3=O)nc2)CC1	0.029
Cn1cc(-c2cc(F)cc(N3CCn4c(cc5c4CCCC5)C3=O)c2CO)cc(Nc2ccc(N3CCN(C4COC4)CC3)cn2)c1=O	0.035
